Drawing on PubChem BioAssay AID2071 (Sanford-Burnham Center for Chemical Genomics, 2009), this text covers inhibition for 65 compounds.

Several values for one entry are separate records, joined by “and”; a condition that tells them apart may be missing. Equal values may be shown once. The list shows a part of the results, in another mix than the full data. Activity calls are given as the source filed them. Cut-off read from the data, not from the text of the source: active = inhibition mostly above about 24% (no sharp cut-off); inactive = mostly below about 32%.

The nature of the test: NALP1 inflammasome inhibitors in reconstituted yeast, colorimetric, S. cerevisiae, triplicate retest (AID 2071). Conditions: S. cerevisiae NALP1/ASC/caspase-1 growth, X-gal OD620, 72 h; at 10 µM; stronger effect = higher value.
With `O=[N+]([O-])c1ncn(CCn2ncnc2[N+](=O)[O-])n1`, the inhibition (in general, the drop in the measured response relative to a control, in per cent) is inactive: -14.8%.
Turning to `O=C(O)CNc1ccc([As](=O)(O)O)cc1`, the inhibition was inactive: 5.5%.
The figure for `O=[N+]([O-])c1cccc(NC2=NCC(CBr)S2)c1` (stereo not given) is inactive: 3.8%; for `O=C(Nc1cc([As](=O)(O)O)ccc1O)c1ccccc1` it is inactive: 10.4%.
Take `CCN(/C(=N/P(=O)(N1CCOCC1)N1CCOCC1)N1CCOCC1)c1ccc(OC)cc1`: the inhibition is inactive: -10.2%.
The figure for `Nc1ccc([As](=O)(O)c2ccc(N)cc2)cc1` is inactive: 1.5%; for `CC1CCN(C(=O)Oc2c(Cl)cc(Cl)c3cccnc23)CC1` it is inactive: 1.9%.
Next, `CN(C)C(=O)OCCc1n(C)cc[n+]1C`: inactive: 18.8%; `CC(C)=N/N=C(\N)N[N+](=O)[O-]`: inactive: 6.6%.
As to `COc1ccc(C2=NCC(CBr)S2)cc1` (stereo not given), the inhibition is inactive: -9.7%.
Next, `CCc1nc2c(n1)c1c(non1O)c1c2no[n+]1[O-]`: inactive: -14.7%; `O=[N+]([O-])c1cc([N+](=O)[O-])c(CCNc2ccccc2)c([N+](=O)[O-])c1`: inactive: -6.2%; `Cc1ccc(NP(=O)(Oc2ccccc2)Oc2ccccc2)nc1`: inactive: 12.3%.
Next, `O=[N+]([O-])c1cccc2n[nH]nc12`: inactive: -0.1%.
As for `CC(=O)N1C2C3N(C(C)=O)C1C1N(C(C)=O)C(C(N1C(C)=O)N3C(C)=O)N2C(C)=O`, the inhibition was inactive: 4.5%.
In the case of `O=C(NC(Sc1ccncn1)C(Cl)(Cl)Cl)c1ccccc1` (stereo not given), the inhibition is inactive: 4.8%.
Next, `Cc1c2non([O-])c-2c(C)[n+](=O)[n+]1[O-]`: inactive: 16.1%; `Oc1ccccc1CNc1ccccn1`: inactive: -19.6%; `CC(C)CC(=O)NC(Sc1ccc(Cl)cc1)C(Cl)(Cl)Cl` (stereo not given): inactive: 2.1%.
As to `Cc1ccc(N/C(=N/P(=O)(N2CCOCC2)N2CCOCC2)N2CCOCC2)cc1`, the inhibition is inactive: -5.9%.
Next, `NC(=O)c1cc([N+](=O)[O-])cc([N+](=O)[O-])c1N`: inactive: 1.2%; `CN1CCCC(OC(=O)C(c2ccccc2)c2ccccc2)C1` (stereo not given): inactive: 27.4%; `Clc1ccc(Cl)c(NC2=NCC(CBr)S2)c1` (stereo not given): inactive: 10%.
As for `Cc1ccc(OP(=O)(Nc2nccs2)Oc2ccc(C)cc2)cc1`, the inhibition is inactive: -7.9%.
As for `COc1ccccc1OP(=O)(Nc1ccc(C)cn1)Oc1ccccc1OC`, the inhibition was inactive: -15.6%.
Next, `O=[N+]([O-])c1cc([N+](=O)[O-])c(CCN2CCOCC2)c([N+](=O)[O-])c1`: inactive: 7.4%; `Nc1cccc2ccc([As](=O)(O)O)cc12`: inactive: 9.5%; `O=P(Nc1nc2ccc(Cl)cc2s1)(c1ccccc1)c1ccccc1`: inactive: -12.5%.
Next, `CC(=O)Nc1ccc([As](=O)(O)O)cc1`: inactive: 19%; `O=C(O)c1ccccc1[As](=O)(O)O`: inactive: 16.4%.
Next, `Cc1cc(SC(NC(=O)c2ccc(F)cc2)C(Cl)(Cl)Cl)ncn1` (stereo not given): inactive: 14.1%; `CCOP(=O)(Nc1ccccc1)OCC`: inactive: 3.1% and inactive: 3.7%; `CCC(=O)N1C2C3N(C(=O)CC)C1C1N(C(=O)CC)C(C(N1C(=O)CC)N3C(=O)CC)N2C(=O)CC`: inactive: -0.5%.
With `O=C(OC1CN2CCC1CC2)c1ccccc1` (stereo not given), the inhibition is inactive: 31.2%.
As for `Cc1ccc(OP(=O)(Nc2ccccn2)Oc2ccc(C)cc2)cc1`, the inhibition was inactive: -9.5%.
Take `CC(=O)NC(SC(=S)N(CC(C)C)CC(C)C)C(Cl)(Cl)Cl` (stereo not given): the inhibition is inactive: 28.6%.
The figure for `COC(=O)c1cc2c(s1)N=C(c1ccccc1)N(C)P2(=O)N1CCOCC1` (stereo not given) is inactive: 8.8%; for `O=c1c2cc([N+](=O)[O-])ccc2[nH]c2c([N+](=O)[O-])cc([N+](=O)[O-])cc12` it is inactive: 6.4%.
For `Cc1ccccc1OP(=O)(Nc1ccccn1)Oc1ccccc1C`, the inhibition was inactive: 25.7%.
Next, `CCOC(=O)NC(Sc1ccccc1)C(Cl)(Cl)Cl` (stereo not given): inactive: -3.3%.
`Cc1ccc(NP(=O)(Oc2cccc(C)c2)Oc2cccc(C)c2)nc1`: the inhibition is inactive: 22.3%.
For the compound `c1ccc(-c2nn[nH]n2)c(-c2nn[nH]n2)c1`, the inhibition was inactive: -7.9%.
Next, `CCNC(=S)/N=C(\N)N[N+](=O)[O-]`: inactive: 3.4%.
As to `O=C(NC1CCS(=O)(=O)C1)NP(=S)(Oc1ccccc1)Oc1ccccc1` (stereo not given), the inhibition is inactive: 4.2%.
In the case of `C[C@H]1OP(=O)(Oc2ccccc2)C[C@@H]2O[C@@H]21` (stereo not given in full), the inhibition is inactive: 6.2%.
For `C[C@@H]1C=CCP(=O)(Oc2ccccc2)O1` (stereo not given in full), the inhibition was inactive: 3.7%.
For the compound `CC(=O)c1ccc(N2CC2c2ccncc2)cc1` (stereo not given), the inhibition was inactive: 3.1%.
For `CC(=O)Nc1ccc(Oc2c([N+](=O)[O-])cc([N+](=O)[O-])cc2[N+](=O)[O-])cc1`, the inhibition is inactive: -7.7%.
Regarding `CC(=O)Nc1ccc([As](=O)(O)O)c(O)c1`, the inhibition is inactive: 9.3%.
Regarding `CCOc1ccc(C2=NCC(CBr)S2)cc1` (stereo not given), the inhibition was inactive: 11.5%.
Next, `O=P1(Nc2nc3ccc(Cl)cc3s2)COc2ccccc2O1` (stereo not given): inactive: 10.1%.
Turning to `CC(C)(C)C(=O)NC(Sc1ccccc1)C(Cl)(Cl)Cl` (stereo not given), the inhibition is inactive: -0.3%.
As to `CC(C)C(=O)NC(Sc1ccccc1)C(Cl)(Cl)Cl` (stereo not given), the inhibition was inactive: 35.4%.
Next, `O=P(Nc1nccs1)(c1ccccc1)c1ccccc1`: inactive: 12.5%; `c1nnnn1CCn1cnnn1`: inactive: 20.3%; `O=[As](O)(c1ccccc1)c1ccc(O)cc1`: inactive: -1.6%.
Next, `O=[N+]([O-])c1ccc(O)c(/C=N/Nc2ccc([N+](=O)[O-])cc2[N+](=O)[O-])c1`: inactive: 33.6%.
Regarding `CC(=O)NC(SC(=S)N(C)C)C(Cl)(Cl)Cl` (stereo not given), the inhibition is active: 80.1%.
For `O=C(OC1CN2CCC1CC2)c1cccc(Cl)c1` (stereo not given), the inhibition was inactive: 16.5%.
Consider `C(Cc1nn[nH]n1)Cc1nn[nH]n1`, for which the inhibition was inactive: 11%.
With `Nc1ccc([As](=O)(O)c2ccc([N+](=O)[O-])cc2)cc1`, the inhibition is inactive: 17.5%.
Consider `O=P(Nc1ccccn1)(c1ccc(Br)cc1)c1ccc(Br)cc1`, for which the inhibition was inactive: 12.4%.
The figure for `CN(C)C1(CNC(=O)c2ccc(Cl)c(S(N)(=O)=O)c2)CCCCC1` is inactive: 5.8%.
Take `C[C@H]1OP(=O)(Oc2ccccc2)[C@H](O)[C@H](O)[C@H]1N=[N+]=[N-]` (stereo not given in full): the inhibition is inactive: -1.1%.
Regarding `O=P(Nc1nc2ccccc2s1)(c1ccccc1)c1ccccc1`, the inhibition was inactive: 12.6%.
